Only a part of the results on these compounds is given; other tests are left out.
Tested on: IMCSzyme™ (recombinant glucuronidase)
Assay: IMCSzyme hydrolysis of buprenorphine and norbuprenorphine glucuronides
Type: biochemical
Settings: summary of Table 1

For Norbuprenorphine Glucuronide, the “Cleavage by the recombinant enzyme (in words)” value was “requiring some time and heat to cleave”.

Reference: patent publication US20160076075A1 (priority 2014, published 2016)
